Test results from PubChem BioAssay (EPA / NIEHS).
The list shows a part of the results, in another mix than the full data. Active and inactive are the calls of the source. The calls were made as follows: active = hit-call score of the fitted dose curve at least 0.9, where 1 is the maximum; inactive = score below 0.9.

Experiment: ATG_NFI_CIS: Attagene CIS-FACTORIAL HepG2 Assay for human Nuclear Factor I (NFI) (AID 2282989)
Conditions: HepG2 cis-regulatory reporter, NFI response element transcription; actives raise or lower the signal
Method: ATG_CIS is a cell-based, multiplexed-readout assay that uses HepG2, a human liver cell line, with measurements taken at 24 hours after chemical dosing in a 24-well plate.ATG_NFI_CIS is one of 52 assay component(s) measured or calculated from the ATG_CIS assay. It is designed to make measurements of mRNA induction, a form of inducible reporter, as detected with fluorescence intensity signals by Reverse transcription polymerase chain reaction (RT-PCR) and Capillary electrophoresis technology.Data from the assay component ATG_NFI_CIS was analyzed into 1 assay endpoint. This assay endpoint, ATG_NFI_CIS, was analyzed with bidirectional fitting relative to DMSO as the negative control and baseline of activity. Using a type of inducible reporter, measures of mRNA for gain or loss-of-signal activity can be used to understand the reporter gene at the transcription factor-level as they relate to the gene NFIA. Furthermore, this assay endpoint can be referred to as a primary readout, because this assay has produced multiple assay endpoints where this one serves a reporter gene function. To generalize the intended target to other relatable targets, this assay endpoint is annotated to the dna binding intended target family, where the subfamily is nuclear factor I.
Human liver HepG2 cells are transiently transfected with multiple reporter transcription units (MRTUs) in 6-well plates using FuGene 6 reagent (Roche; 3 ml FuGene/1 mg DNA). The MRTU constructs are regulated by a cis-regulating element (promoter). […] A major difference between the CIS and TRANS system is that in CIS activities of endogenous TFs are measured, whereas the TRANS assay evaluates changes in activities of exogenous, chimeric NR-Gal4 proteins. […] At the end of 24 hour incubation, total RNA was isolated using TriZol reagent (Invitrogen). The isolated RNA is then reverse-transcribed using oligo(dT) primer and Mo-MLV reverse transcriptase (Invitrogen) with DNAse I (Ambion) treatment for 30 min. The one-tenth of the produced cDNA was amplified by PCR using Taq DNA polymerase (Invitrogen) and two reporter sequence-specific primers. The PCR products were fluorescently labeled by primer extension with 6-arboxyfluorescein (6-FAM) 5'-labeled reporter sequence-specific primer (2 min at 95 C, 20 s at 68 C and 10 min at 72 C) and these products were digested with 5U of HpaI (New England Biolabs) for 2h at 37 C. The fragments were purified using Qiaquick PCR columns (Qiagen), analyzed on an ABI 3130xL genetic analyzer (Applied Biosystems) with peak positions identified by using a set of X-rhodamine (ROX)-labeled MapMarker1000 molecular weight standards (BioVentures). The raw capillary electrophoresis data was processed using Attagraph software (Attagene).

Row | Compound | outcome
1 | CC(C)N(CCO)C(C)C | inactive
2 | O=[N+]([O-])OCC(CO[N+](=O)[O-])(CO[N+](=O)[O-])CO[N+](=O)[O-] | inactive
3 | Cc1ccc([N+](=O)[O-])c([N+](=O)[O-])c1 | inactive
4 | Cc1cccc([N+](=O)[O-])c1[N+](=O)[O-] | inactive
5 | CN(C)CCCl | inactive
6 | Cc1ccc([N+](=O)[O-])cc1[N+](=O)[O-] | inactive
7 | COP(C)(=O)OC | inactive
8 | COc1ccc([N+](=O)[O-])cc1[N+](=O)[O-] | inactive
9 | O=[N+]([O-])c1cccc([N+](=O)[O-])c1 | inactive
10 | CC(C)OP(C)(=O)OC(C)C | inactive
11 | Cc1c([N+](=O)[O-])cccc1[N+](=O)[O-] | inactive
12 | N#CBr | inactive
